Target: T1, Porcine kidney DPP-IV (Sus scrofa, UniProt P22411)
T1 construct: purchased Sigma-Aldrich; host or cells: porcine kidney (tissue-derived, as named)
Assay: DPP-IV Glo Protease Assay (luminescence), DPP-IV inhibition
Format: biochemical
Conditions: pure compounds, concentration based on molecular mass; means ± SEM
Excerpt: All solvents used for phenolic extraction were HPLC-grade and were purchased from Fisher Scientific (Pittsburg, PA). Amberlite XAD-7 was purchased from Sigma-Aldrich (St. Louis, MO). Sephadex LH-20 was purchased from GE Life Sciences (Buckinghamshire, UK). […] DPP-IV Glo^TM Protease Assay kits were purchased from Promega (Madison, WI). […] All other reagents were of analytical grade.
Measurement of the activity and potential inhibition of DPP-IV, a type II membrane glycoprotein, was done using the DPP-IV Glo^TM Protease Assay following the manufacture's protocol (Promega, Madison, WI). Briefly, 50 μL of DPP-IV Glo^TM reagent was added to a white-walled 96-well plate containing 50 μL of blank, positive control, or treatment. The blank contained the vehicle only while positive control contained the vehicle and purified DPP-IV enzyme (at a final concentration of 1 ng/mL). […] The content of the wells was gently mixed using an Ultra Microplate Reader (Biotek Instruments, Winooski, VT) at medium intensity for 4 s. […] This signal in RLU was measured after 30 min in the Ultra Microplate Reader and then compared to the blank. […] IC50 values were calculated based on the molecular mass of each compound or C3G as the equivalent for ANC-enriched fractions.
Data were expressed as means of independent duplicates with at least three replicates. […]

By UniProt entry, the sequences of proteins in these tests, tags left out. Where a name states a change or a piece, a line headed by the entry shows the natural chain unless it says otherwise.
UniProt P22411: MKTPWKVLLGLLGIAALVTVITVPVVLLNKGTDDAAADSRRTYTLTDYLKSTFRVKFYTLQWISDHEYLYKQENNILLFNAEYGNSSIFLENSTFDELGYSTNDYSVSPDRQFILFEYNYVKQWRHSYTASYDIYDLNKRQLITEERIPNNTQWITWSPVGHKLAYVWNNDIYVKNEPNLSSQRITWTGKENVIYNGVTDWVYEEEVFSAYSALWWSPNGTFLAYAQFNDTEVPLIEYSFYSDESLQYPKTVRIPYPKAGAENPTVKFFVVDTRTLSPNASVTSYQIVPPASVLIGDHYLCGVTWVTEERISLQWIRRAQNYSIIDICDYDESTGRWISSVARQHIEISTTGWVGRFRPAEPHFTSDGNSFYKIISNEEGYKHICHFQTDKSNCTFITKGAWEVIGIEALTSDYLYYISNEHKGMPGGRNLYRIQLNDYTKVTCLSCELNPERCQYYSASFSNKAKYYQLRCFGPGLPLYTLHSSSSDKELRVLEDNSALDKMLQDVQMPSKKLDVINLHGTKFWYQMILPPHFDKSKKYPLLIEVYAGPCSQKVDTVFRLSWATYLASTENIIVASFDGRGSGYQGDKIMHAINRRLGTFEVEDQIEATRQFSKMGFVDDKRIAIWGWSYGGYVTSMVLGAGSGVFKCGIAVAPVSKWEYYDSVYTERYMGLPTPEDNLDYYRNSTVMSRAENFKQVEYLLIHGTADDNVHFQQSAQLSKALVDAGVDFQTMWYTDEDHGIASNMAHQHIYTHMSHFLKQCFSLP

Compound `CC[C@H](C)[C@H](N)C(=O)N1CCC[C@H]1C(=O)N[C@H](C(=O)O)[C@@H](C)CC` [Diprotin A, Ile-Pro-Ile, reference compound] has an IC50 of 4.21 µM.

— article PMC3773436 (Evidence-based Complementary and Alternative Medicine : eCAM, 2013)
